The target in the assay is T1, Glycogen phosphorylase, muscle form (Oryctolagus cuniculus, UniProt P00489).
T1 sequence (P00489 whole entry): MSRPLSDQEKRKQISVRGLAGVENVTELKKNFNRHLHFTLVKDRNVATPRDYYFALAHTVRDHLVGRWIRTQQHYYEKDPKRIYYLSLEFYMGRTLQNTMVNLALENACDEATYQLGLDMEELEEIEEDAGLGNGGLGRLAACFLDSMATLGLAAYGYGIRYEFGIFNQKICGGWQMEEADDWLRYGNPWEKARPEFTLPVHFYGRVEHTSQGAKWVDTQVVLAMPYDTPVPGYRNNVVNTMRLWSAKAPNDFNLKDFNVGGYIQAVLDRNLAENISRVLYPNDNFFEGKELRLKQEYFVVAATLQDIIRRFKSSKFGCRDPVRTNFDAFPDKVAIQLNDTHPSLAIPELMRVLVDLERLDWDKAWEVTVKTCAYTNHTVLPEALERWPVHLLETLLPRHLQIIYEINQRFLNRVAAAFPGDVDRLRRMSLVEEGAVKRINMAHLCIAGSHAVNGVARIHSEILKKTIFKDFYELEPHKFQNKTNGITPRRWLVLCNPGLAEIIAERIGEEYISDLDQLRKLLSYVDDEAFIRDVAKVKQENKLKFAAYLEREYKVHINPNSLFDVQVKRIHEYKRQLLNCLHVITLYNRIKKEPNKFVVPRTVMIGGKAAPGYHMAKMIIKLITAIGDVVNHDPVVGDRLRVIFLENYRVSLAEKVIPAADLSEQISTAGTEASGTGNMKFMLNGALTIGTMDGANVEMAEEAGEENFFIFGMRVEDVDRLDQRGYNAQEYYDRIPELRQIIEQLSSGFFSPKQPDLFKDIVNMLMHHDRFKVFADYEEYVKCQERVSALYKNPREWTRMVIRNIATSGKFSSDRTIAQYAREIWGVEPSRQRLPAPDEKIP

Each structure is given as a SMILES string.

A word on the IC50: it is the concentration at which inhibition is half-maximal. Low readings indicate inhibition by little substance, high ones a need for much substance.

Regarding `OC[C@H]1CN(CCCc2ccccc2)C[C@@H](O)[C@@H]1O`, the IC50 turned out to be 840 nM.

(Values after ChEMBL document CHEMBL1137256, “Iminosugars as potential inhibitors of glycogenolysis: structural insights into the molecular basis of glycogen phosphorylase inhibition” (J Med Chem, 2006).)
